pIC50, pKd: −log10 of the molar value.
Columns and labels:
[1] = molecular target: T1, Tyrosine-protein kinase BTK (Homo sapiens, UniProt Q06187); experiment: Inhibition of human BTK using fluorescein-labeled polyGAT peptide as substrate incubated for 30 mins by FRET assay
[2] = molecular target: T1, Tyrosine-protein kinase BTK
[3] = molecular target: T1, Tyrosine-protein kinase BTK; remark: listed apart in the source
[4] = molecular target: T1, Tyrosine-protein kinase BTK; experiment: Inhibition of BTK phosphorylation in human whole blood assessed as reduction in BTK phosphorylation incubated for 30 mins; type: tissue-based
[5] = molecular target: T1, Tyrosine-protein kinase BTK; experiment: Binding affinity to wild-type human full length BTK (M1 to S659 residues) expressed in mammalian expression system by Kinomescan method

Amino acid sequences for entries named in this document (tags omitted). A change or cut given only in a name is not applied to a line headed by its entry.
UniProt Q06187: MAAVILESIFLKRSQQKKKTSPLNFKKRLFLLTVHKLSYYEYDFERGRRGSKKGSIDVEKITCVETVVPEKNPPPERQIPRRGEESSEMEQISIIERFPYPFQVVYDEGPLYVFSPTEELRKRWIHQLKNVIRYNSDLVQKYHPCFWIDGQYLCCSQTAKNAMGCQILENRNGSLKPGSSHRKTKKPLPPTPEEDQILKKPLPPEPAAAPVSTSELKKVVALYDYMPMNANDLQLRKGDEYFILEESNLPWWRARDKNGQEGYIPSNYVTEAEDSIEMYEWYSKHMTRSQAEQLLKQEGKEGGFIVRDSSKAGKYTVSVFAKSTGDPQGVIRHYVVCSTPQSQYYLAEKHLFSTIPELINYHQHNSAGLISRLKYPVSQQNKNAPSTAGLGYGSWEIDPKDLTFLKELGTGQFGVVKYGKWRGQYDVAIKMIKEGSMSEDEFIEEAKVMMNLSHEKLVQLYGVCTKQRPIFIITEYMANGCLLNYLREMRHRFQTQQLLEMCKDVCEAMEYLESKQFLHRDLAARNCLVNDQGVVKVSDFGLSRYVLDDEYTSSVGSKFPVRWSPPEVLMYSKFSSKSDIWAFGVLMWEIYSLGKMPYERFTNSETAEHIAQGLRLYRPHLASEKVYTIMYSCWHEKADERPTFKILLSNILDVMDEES

| pIC50 [1] | pIC50 [2] | pIC50 [3] | pIC50 [4] | pKd [5] | SMILES |
| --- | --- | --- | --- | --- | --- |
| > 9.30 | 5.16 | 8.27 | 7.62 | – | Cn1cc(Nc2nccc(-c3ccc4c(c3)CN(C3COC3)CC[C@H]4NC(=O)c3cn(C(C)(C)C)nn3)n2)cn1 [BIIB-091] |
| 9.00 | – | – | 7.40 | – | C=CC(=O)Nc1cccc(Nc2nc(Nc3ccc(OCCOC)cc3)ncc2F)c1 [SPEBRUTINIB] |
| > 9.00 | – | – | – | 9.62 | C[C@@H]1CN(C2COC2)CCN1c1ccc(Nc2cc(-c3ccnc(N4CCn5c(cc6c5CC(C)(C)C6)C4=O)c3CO)cn(C)c2=O)nc1 |

From ChEMBL document CHEMBL5042486, “Discovery and Preclinical Characterization of BIIB091, a Reversible, Selective BTK Inhibitor for the Treatment of Multiple Sclerosis” (J Med Chem, 2022)
